# Measured values: paper PMC4055232 (Malaria Journal, 2014)
# “And” between values parts separate entries of the source, which are not always exact repeats. Equal values may be shown once. Marks after values point to notes of the source that are not given here.
# How the values were obtained:
# [1] = Pharmacokinetics of probe drug cocktail (bupropion, midazolam) and their metabolites before and after QHS-PQ; type: in vivo, human; details: for AUC 0-t /dose: mean ± sd
# Protocol: The chromatography was performed at 22°C. The mobile phase consisted of B (acetonitrile) and A (0.1% formic acid in water), which increased linearly from 20% B to 90% B during 7 min before column re-equilibration at a flow rate of 0.3 mL/min.
# Plasma samples were subjected to a protein precipitation extraction process. A 100 μL aliquot of human plasma was mixed with 25 μL of acetonitrile and 200 μL of IS (1 μM of alprazolam, prepared in acetonitrile). The mixture was mixed and centrifuged at 3,000 g for 10 min. Aliquots (20 μL) of the solution were injected onto LC-MS analysis. […] This mixture was treated as above. […] Plasma samples were diluted with blank plasma and reanalysed when the concentration of any analyte was higher than the upper limit of quantification.
# Venous blood samples (2 mL) for analysis of probe drugs and their metabolites were taken from an indwelling intravenous catheter at 0, 0.25, 0.75, 1.5, 2.0, 3.0, 4.0, 5.0, 7.0, 11.0, 24.0, 36.0, and 48.0 hours.
# The peak plasma concentration (Cmax) and time-to-peak concentration (Tmax) were obtained from experimental observations. The other pharmacokinetic parameters were analysed by non-compartmental model using the program TOPFIT (version 2.0; Thomae GmbH, Germany). The area under the plasma concentration-time curve (AUC o-t ) was calculated using the linear trapezoidal rule to approximately the last point. The mean residence time (MRT) was obtained by dividing the area under the first moment-time curve (AUMC 0-t ) by the area under the curve (AUC 0-t ). Total oral body clearance (CL/F) was calculated as dose/AUC 0-t .
# Results were expressed as mean ± SD. The two-tailed t-test was used for paired comparison of the pharmacokinetic parameters between the single dose and multiple doses after logarithmic transformation. Geometric mean ratios with 90% confidence intervals (CIs) were calculated after log transformation of within-subject data. The comparison of Tmax for the different treatment groups was performed using the Wilcoxon signed-rank test. The acceptable level of significance was established at P < 0.05 or P < 0.01.
# [2] = test system: CYP3A4; details: healthy Chinese and Caucasian volunteers; cited from earlier work
# [3] = 2-day (after QHS-PQ) versus 1-day (day -14)
smiles,measurement,setting,value
"Cc1ncc2n1-c1ccc(Cl)cc1C(c1ccccc1F)=NC2 [MDZ, midazolam]",Geometric mean ratio (90% CI) of AUC 0-t /dose,[1]; [3],"1.55 (1.35, 1.78)**"
same,Geometric mean ratio (90% CI) of C max,[1]; [3],"1.48 (1.12, 1.97)*"
same,Geometric mean ratio (90% CI) of CL/F,[1]; [3],"0.64 (0.55, 0.73)**"
same,Geometric mean ratio (90% CI) of MRT,[1]; [3],"1.04 (0.96, 1.14)"
same,increase of AUC/dose after QHS-PQ,[1]; after two days of QHS-PQ versus day -14,1.6 ± 0.5 fold
same,AUC 0-t /dose,"[1]; listed as '1-day': oral probe cocktail (bupropion 75 mg, midazolam 15 mg) on day -14, before QHS-PQ",1.0 ± 0.3 h·kg·L^-1 and 1.00 ± 0.33** h·kg·L^-1
same,AUC 0-t /dose,[1]; listed as '2-day': probe cocktail 1 hour after second oral dose of QHS-PQ (day 2),1.55 ± 0.42** h·kg·L^-1
same,"AUC ratio of OH-MDZ to MDZ, reported data",[2],0.22-0.30
